Data: patent US20030109448A1, “Methods of promoting uptake and nuclear accumulation of polyamides in eukaryotic cells” (priority 2001, published 2003)

Columns and labels:
HCT116 cells = assay: Effect of P-gp inhibitors on intracellular distribution of Compound 1; conditions: HCT116, inhibitor 5 to 100 μM, 30 min pretreatment then 16 hr with polyamide, data not shown
RSF cells = assay: as above; conditions: inhibitor 5 to 100 μM, 30 min pretreatment then 16 hr with polyamide

Question: For CC(C)COCC(CN(Cc1ccccc1)c1ccccc1)N1CCCC1 (centres unmarked) [bepridil], which “effect on nuclear accumulation / intracellular distribution of Compound 1” value (HCT116 cells) is on record?
Answer: None of these showed any observable ability to enhance nuclear accumulation

Question: And the “effect on intracellular distribution of Compound 1” value (RSF cells)?
Answer: no effect
